“And” between values parts separate entries of the source, which are not always exact repeats. Equal entries are not always repeated. This is a selection; strong and weak results do not stand in their true shares. Records with an inconclusive call do not appear. A structure can be active in one record and inactive in another. The source made the active and inactive calls. Rule for the calls, unless noted: active = hit-call score of the fitted dose curve at least 0.9, where 1 is the maximum; inactive = score below 0.9.
Tests used:
[1] = ACEA_ER_80hr: ACEA Biosciences xCELLigence Real-Time Cell Analysis on Estrogen Receptor Agonism for Proliferation (AID 2282667; active = hit-call score of the fitted dose curve at least 0.9, where 1 is the maximum); details: T47D proliferation, impedance (xCELLigence), 80 h
Outline: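 Real-time impedance growth kinetics of human T-47D breast cells read 80 h after dosing, gain-of-signal fitted relative to DMSO. Compounds: 1:4 serial series, top final concentration 100 uM, n = 2.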

[2] = APR_HepG2_CellCycleArrest_1hr: Apredica 1-hour HepG2 Assay for Cell Cycle Arrest (AID 2282666); details: high-content imaging, actives raise or lower the signal
Method: (§1) APR_HepG2_1hr is a cell-based, multiplexed-readout assay that uses HepG2, a human liver cell line, with measurements taken at 1 hour after chemical dosing in a 384-well plate.APR_HepG2_CellCycleArrest_1hr is one of 10 assay component(s) measured or calculated from the APR_HepG2_1hr assay. It is designed to make measurements of cell phenotype, a form of morphology reporter, as detected with fluorescence intensity signals by HCS Fluorescent Imaging technology.Data from the assay component APR_HepG2_CellCycleArrest_1hr was analyzed into 1 assay endpoint. This assay endpoint, APR_HepG2_CellCycleArrest_1hr, was analyzed with bidirectional fitting relative to DMSO as the negative control and baseline of activity. Using a type of morphology reporter, measures of all nuclear dna for gain or loss-of-signal activity can be used to understand the signaling at the pathway-level as they relate to the gene . Furthermore, this assay endpoint can be referred to as a primary readout, because this assay has produced multiple assay endpoints where this one serves a signaling function. To generalize the intended target to other relatable targets, this assay endpoint is annotated to the cell cycle intended target family, where the subfamily is arrest. […]

[3] = APR_HepG2_CellLoss_1hr: Apredica 1-hour HepG2 Assay for Cell Loss (AID 2282668); details: high-content imaging;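 note: curves fitted both ways against DMSO so gain or loss of cells counts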
Method: APR_HepG2_1hr is a cell-based, multiplexed-readout assay that uses HepG2, a human liver cell line, with measurements taken at 1 hour after chemical dosing in a 384-well plate.APR_HepG2_CellLoss_1hr is one of 10 assay component(s) measured or calculated from the APR_HepG2_1hr assay. It is designed to make measurements of cell number, a form of viability reporter, as detected with fluorescence intensity signals by HCS Fluorescent Imaging technology.Data from the assay component APR_HepG2_CellLoss_1hr was analyzed into 1 assay endpoint. This assay endpoint, APR_HepG2_CellLoss_1hr, was analyzed with bidirectional fitting relative to DMSO as the negative control and baseline of activity. Using a type of viability reporter, measures of all nuclear dna for gain or loss-of-signal activity can be used to understand the viability at the cellular-level. Furthermore, this assay endpoint can be referred to as a secondary readout, because this assay has produced multiple assay endpoints where this one serves a viability function. To generalize the intended target to other relatable targets, this assay endpoint is annotated to the cell cycle intended target family, where the subfamily is proliferation.
(§2) Cells were treated with dimethyl sulfoxide (DMSO) as a solvent control at a final concentration of 0.5% v/v or with compounds in DMSO with a resulting final DMSO concentration of 0.5% v/v. […]

[4] = APR_HepG2_MicrotubuleCSK_1hr: Apredica 1-hour HepG2 Assay for Microtubule CSK Stabilty (AID 2282669); details: HepG2 microtubule cytoskeleton imaging, actives raise or lower the signal
Outline: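 HepG2 cells exposed 1 h to 0.39–200 uM compound (0.5% DMSO, duplicates), then formaldehyde-fixed, permeabilized and immunostained for alpha-tubulin with Hoechst nuclei. Imaged by ArrayScan high-content analysis; bidirectional fit versus DMSO.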

[5] = APR_HepG2_NuclearSize_1hr: Apredica 1-hour HepG2 Assay for Nuclear Size (AID 2282670); details: high-content imaging, actives raise or lower the signal
Method: as §1, with “plate.APR_HepG2_NuclearSize_1hr” for “plate.APR_HepG2_CellCycleArrest_1hr”, “APR_HepG2_NuclearSize_1hr” for “APR_HepG2_CellCycleArrest_1hr”, “APR_HepG2_NuclearSize_1hr,” for “APR_HepG2_CellCycleArrest_1hr,”, “nuclear-level.” for “pathway-level as they relate to the gene .”, “morphology” for “cycle”, “organelle conformation.” for “arrest.”

[6] = APR_HepG2_p53Act_1hr: Apredica 1-hour HepG2 Assay for p53 Activation (AID 2282671); details: high-content imaging, actives raise or lower the signal
Outline: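 HepG2 cells treated 1 h with compound at 0.39–200 uM (10 concentrations, duplicate) in 0.5% DMSO. Formaldehyde-fixed, permeabilised cells immunostained for p53 with Hoechst 33342; high-content imaging, bidirectional fit versus DMSO.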

[7] = APR_HepG2_MitoticArrest_1hr: Apredica 1-hour HepG2 Assay for Mitotic Arrest (AID 2282672); details: high-content imaging, actives raise or lower the signal
Method: as §1, with “plate.APR_HepG2_MitoticArrest_1hr” for “plate.APR_HepG2_CellCycleArrest_1hr”, “APR_HepG2_MitoticArrest_1hr” for “APR_HepG2_CellCycleArrest_1hr”, “APR_HepG2_MitoticArrest_1hr,” for “APR_HepG2_CellCycleArrest_1hr,”, “protein” for “all nuclear dna”

[8] = APR_HepG2_P-H2AX_1hr: Apredica 1-hour HepG2 Assay for H2AX Phosphorylation (AID 2282673); details: high-content imaging, actives raise or lower the signal
Outline: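 HepG2 dosed 1 hr at 0.39-200 uM (0.5% DMSO final), duplicate. Fixed in 3.7% formaldehyde, Triton permeabilized, immunostained for phospho-histone H2A.x (1:200) with Hoechst 33342; ArrayScan 20x imaging, bidirectional fit vs DMSO.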

[9] = APR_HepG2_MitoMass_1hr: Apredica 1-hour HepG2 Assay for Mitochondrial Mass (AID 2282674); details: high-content imaging, actives raise or lower the signal
Method: APR_HepG2_1hr is a cell-based, multiplexed-readout assay that uses HepG2, a human liver cell line, with measurements taken at 1 hour after chemical dosing in a 384-well plate.APR_HepG2_MitoMass_1hr is one of 10 assay component(s) measured or calculated from the APR_HepG2_1hr assay. It is designed to make measurements of cell phenotype, a form of morphology reporter, as detected with fluorescence intensity signals by HCS Fluorescent Imaging technology.Data from the assay component APR_HepG2_MitoMass_1hr was analyzed into 1 assay endpoint. This assay endpoint, APR_HepG2_MitoMass_1hr, was analyzed with bidirectional fitting relative to DMSO as the negative control and baseline of activity. Using a type of morphology reporter, gain or loss-of-signal activity can be used to understand changes in the signaling. Furthermore, this assay endpoint can be referred to as a primary readout, because this assay has produced multiple assay endpoints where this one serves a signaling function. To generalize the intended target to other relatable targets, this assay endpoint is annotated to the cell morphology intended target family, where the subfamily is organelle conformation.
as §2

[10] = APR_HepG2_MitoMembPot_1hr: Apredica 1-hour HepG2 Assay for Mitochondrial Membrane Potential (AID 2282675); details: imaging, actives raise or lower the signal
Outline: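 HepG2 cells dosed 1 hour with 0.39–200 uM compound in duplicate, 0.5% DMSO final. MitoTracker Red CMXRos (250 nM, 30 min) loaded before formaldehyde fixation; fluorescence quantified by high-content imaging, bidirectional fitting versus DMSO.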

With `CCCCOP(OCCCC)OCCCC` the outcome [1] was “inactive”.
With `O=C1C2CC=CCC2C(=O)N1SC(Cl)(Cl)C(Cl)Cl` (centres undefined) the outcome [2] was “inactive”, the outcome [3] was “inactive” and the outcome [4] was “inactive”. For the same compound, the outcome [5] was “inactive”, the outcome [6] was “inactive” and the outcome [7] was “inactive”. For the same compound, the outcome [8] was “inactive”, the outcome [9] was “inactive” and the outcome [10] was “inactive”.
For `CC(C)OP(=S)(OC(C)C)SCCNS(=O)(=O)c1ccccc1`, the outcome [2] was “inactive”, the outcome [3] was “inactive” and the outcome [4] was “inactive”. For the same compound, the outcome [5] was “inactive”, the outcome [7] was “inactive” and the outcome [8] was “inactive”. For the same compound, the outcome [9] was “inactive”, the AC50 [10] was active: 90.2 µM and active: 160 µM and the outcome [10] was “inactive”.
With `Cc1cc([N+](=O)[O-])cc([N+](=O)[O-])c1O` the outcome [1] was “inactive”.
In the case of `O=[P+](Oc1ccccc1)Oc1ccccc1`, the AC50 [1] is reported as active: 7.14 µM.
For `CC(C)CCCCCCCOP(OCCCCCCCC(C)C)Oc1ccccc1`, the outcome [1] was “inactive”.
For `ClP(Cl)c1ccccc1`, the outcome [1] was “inactive”.
For `CCCCO[P+](=O)OCCCC`, the outcome [1] was “inactive”.

Source: PubChem BioAssay (EPA / NIEHS)
